The list shows a part of the results, in another mix than the full data. Some salts and complexes are drawn in separate pieces, as the source files them; their charges need not balance. Active and inactive are the calls of the source.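 Rule for the calls: active = compounds giving at least 50% protection of heart cells from peroxide-induced death in the single-dose screen, raw or plate-pattern-corrected value; inactive = the rest.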
Test: cardioprotection against H2O2-induced cell death, primary screen, uHTS, H9c2 cells, ATPLite luminescence (AID 588492);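 note: 0% = DMSO wells with peroxide and 100% = DMSO wells without peroxide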
Settings: H9c2 cardiomyocytes, H2O2 injury protection, 2 h, at 20 µM, active compounds read high

SMILES	protection from H2O2 cell death
COc1ccc(OP(C)(=O)Nc2ccc(Br)cc2)cc1 (stereo not given)	inactive: 3.1%
CCN(CC)CC(O)COC(=O)C(O)(c1ccccc1)C1CCCCC1 (stereo not given)	inactive: -9.2%
CCc1ccc(OP(C)(=O)Nc2cccnc2)cc1 (stereo not given)	inactive: -8.2%
CP(=O)(Oc1ccccc1)N1CCOC1=O (stereo not given)	inactive: 8.7%
O=C(OCCCN1CCCC1)C(O)(c1ccccc1)C1CCCCC1 (stereo not given)	inactive: -0.5%
COc1ccccc1OP(C)(=O)Nc1c(C)n(C)n(-c2ccccc2)c1=O (stereo not given)	inactive: -0.3%
CP(=O)(Nc1ccc(Cl)cc1)Oc1ccc(F)cc1 (stereo not given)	inactive: -5.9%
CC(C)(C)c1ccc(OP(C)(=O)O)cc1	inactive: -6.4%
COc1ccccc1OP(C)(=O)Nc1ccccc1Br (stereo not given)	inactive: 5.9%
CN(C)C(=O)c1c([N+](=O)[O-])cc([N+](=O)[O-])cc1[N+](=O)[O-]	inactive: -12.6%
COc1ccccc1OP(C)(=O)Nc1ccc(Br)cc1 (stereo not given)	inactive: -1%
CN(C)CCOC(=O)C(O)(c1ccccc1)C1CCCC1 (stereo not given)	inactive: -6.4%
COc1ccc(OP(C)(=O)Nc2ccccn2)cc1 (stereo not given)	inactive: 5.8%
O=[N+]([O-])c1cc([N+](=O)[O-])c(Nc2ccccn2)c([N+](=O)[O-])c1	inactive: -20.8%
Cc1c(NP(C)(=O)Oc2ccc(C(C)C)cc2)c(=O)n(-c2ccccc2)n1C (stereo not given)	inactive: 1.5%
CCc1ccc(OP(C)(=O)O)cc1	inactive: 5.1%
COc1ccccc1OP(C)(=O)Nc1ccc(C)cc1C (stereo not given)	inactive: 0.1%
CP(=O)(Nc1ccccn1)Oc1ccccc1 (stereo not given)	inactive: 0.5%
Cc1cc(C)cc(OP(C)(=O)Nc2cccc(C(F)(F)F)c2)c1 (stereo not given)	inactive: -7.7%
O=C1C(O)=C([N+](=O)[O-])C(=O)C(O)=C1[N+](=O)[O-]	inactive: 5.9%
COc1ccc(OP(C)(=O)Nc2ccccc2Br)cc1 (stereo not given)	inactive: 0.4%
COc1ccccc1OP(C)(=O)Nc1ccc(C)c(C)c1 (stereo not given)	inactive: -2.4%
CP(=O)(OCCOc1ccccc1)OCCOc1ccccc1	inactive: 8.5%
CP(=O)(Nc1ccc(Cl)cc1Cl)Oc1ccccc1 (stereo not given)	inactive: 1.3%
CCCCCCCCCCCCCCCC1C[N+](C)(C)CCOP(C)(=O)O1 (stereo not given)	inactive: -9.7%

SMILES	protection from H2O2 cell death
COc1ccc(OP(C)(=O)Nc2ccc(SC(F)(F)F)cc2)cc1 (stereo not given)	inactive: -11%
CCOC(=O)c1ccc(NP(C)(=O)Oc2ccc(F)cc2)cc1 (stereo not given)	inactive: 6%
CCN(CC)CCCOC(=O)C(O)(c1ccccc1)C1CCCCC1 (stereo not given)	inactive: -3.1%
Cc1c([N+](=O)[O-])cc([N+](=O)[O-])c(Br)c1[N+](=O)[O-]	inactive: 4.7%
O=[N+]([O-])c1cc([N+](=O)[O-])c(OC2CCCCC2O)c([N+](=O)[O-])c1 (stereo not given)	inactive: -0.8%
CCCCCOc1ccc(NP(C)(=O)Oc2ccc(Cl)cc2Cl)cc1 (stereo not given)	inactive: -2%
CP(=O)(Nc1ccccc1)Oc1ccc(F)cc1 (stereo not given)	inactive: 7.5%
O=[N+]([O-])c1cc([N+](=O)[O-])c(Nc2ccc(Cl)cc2)c([N+](=O)[O-])c1	inactive: -20.1%
CC(C)c1ccc(OP(C)(=O)Nc2ccc(SC(F)(F)F)cc2)cc1 (stereo not given)	inactive: -11.1%
CP(=O)(Nc1ccccc1F)Oc1ccccc1 (stereo not given)	inactive: 1.4%
O=C(OCCN1CCN(CCOCc2ccccc2)CC1)C(O)(c1ccccc1)c1ccccc1	inactive: -4.3%
O=C(OC1CN2CCC1CC2)c1ccc([N+](=O)[O-])cc1 (stereo not given)	inactive: 3.4%
COc1ccc2c(c1O)-c1c(O)c(OC)cc3c1[C@H](C2)[N+](C)(C)CC3.O=[N+]([O-])c1cc([N+](=O)[O-])c([O-])c([N+](=O)[O-])c1[O-]	inactive: 0.9%
CP(=O)(Nc1ccc(SC(F)(F)F)cc1)Oc1ccc(F)cc1 (stereo not given)	inactive: -6%
CCOP(C)(=S)SCC(=O)NC(C)(CC)C(=O)O (stereo not given)	inactive: -2%
CP(=O)(Nc1ccc2c(c1)OCCO2)Oc1ccccc1 (stereo not given)	inactive: 6.2%
Cc1ccccc1NP(C)(=O)Nc1ccccc1C	inactive: 3.4%
CN(C)C1(CNC(=O)c2ccc(Cl)c(S(N)(=O)=O)c2)CCCCC1	inactive: 3.9%
COc1ccc(OP(C)(=O)Nc2cccc(Br)c2)cc1 (stereo not given)	inactive: 1.9%
COc1ccc(NP(C)(=O)Oc2ccccc2OC)cc1 (stereo not given)	inactive: -7.2%
CN(C)CCOC(=O)C(O)(c1ccccc1)C1CCCCC1 (stereo not given)	inactive: 6.1%
O=[N+]([O-])c1cc([N+](=O)[O-])c(NCC2CCS(=O)(=O)C2)c([N+](=O)[O-])c1 (stereo not given)	inactive: -7.6%
Cc1cc(-c2cccc3ccccc23)c(C)cn1.O=[N+]([O-])c1cc([N+](=O)[O-])c(O)c([N+](=O)[O-])c1	inactive: -2.2%
O=[N+]([O-])c1ccc(OP2(=O)COCCO2)cc1 (stereo not given)	inactive: -4.5%
Cc1c(C(c2ccc3c(c2)OCO3)c2c(C)n(C)n(-c3ccccc3)c2=O)c(=O)n(-c2ccccc2)n1C.O=[N+]([O-])c1cc([N+](=O)[O-])c(O)c([N+](=O)[O-])c1	inactive: -1.6%

Reference: PubChem BioAssay AID588492 (Sanford-Burnham Center for Chemical Genomics, 2011)
